Biological target: T1, purified human lactate dehydrogenase isoform 5 (hLDH5) (Homo sapiens, UniProt P00338)
T1 construct: purchased Lee Biosolution, Inc., St. Louis, MO, USA
Experiment: hLDH5 inhibition assay (pyruvate→lactate, NADH fluorescence)
Type: biochemical
Details: 200 μM pyruvate, 40 μM NADH, phosphate buffer pH 7.4, 15 min incubation
Protocol: LDH assays: The LDH inhibition properties of the selected compounds were evaluated against purified human lactate dehydrogenase isoform 5 (Lee Biosolution, Inc., St. Louis, MO, USA). The “forward” direction (pyruvate→lactate) of the lactate dehydrogenase reaction was conducted, and the kinetic parameters were measured by fluorescence (emission wavelength at 460 nm, excitation wavelength at 340 nm) to monitor the amount of consumed NADH. Assays were carried out in wells containing 200 μL of a reagent solution dissolved in 100 mM phosphate buffer (pH = 7.4). For the IC50 calculations of the compounds, seven different concentrations (in duplicate for each concentration) of the isolated compounds were used to produce the concentration-response curve. All of the compounds were tested in the presence of 200 μM pyruvate and 40 μM NADH. Any background fluorescence likelihood of the tested samples, or NADH fluorescence quenching, was subtracted. In addition to the sample test wells, maximum and minimum controls were also included in each plate. After 15 min of incubation, the final measurements were carried out by using a Victor X3 Microplates Reader (PerkinElmer®). IC50 values were produced using GraphPad Prism software.

SMILES: NC(=O)C(=O)O [oxamic acid]
- IC50: 97.7 ± 11.2 µM
